Laboratory results from patent US5892018A, “DNA sequences encoding a brain sodium channel protein” (priority 1997, dated 1999).

Target: T1, BNC1 (Homo sapiens, UniProt Q16515)
T1 construct: a 1539-bp open reading frame extending to the 3' stop codon; expressed in transfected cells; host or cells: Xenopus laevis oocytes, nuclear injection of BNC1 cDNA in pMT3
T1 sequence (Q16515 1-512 T495A): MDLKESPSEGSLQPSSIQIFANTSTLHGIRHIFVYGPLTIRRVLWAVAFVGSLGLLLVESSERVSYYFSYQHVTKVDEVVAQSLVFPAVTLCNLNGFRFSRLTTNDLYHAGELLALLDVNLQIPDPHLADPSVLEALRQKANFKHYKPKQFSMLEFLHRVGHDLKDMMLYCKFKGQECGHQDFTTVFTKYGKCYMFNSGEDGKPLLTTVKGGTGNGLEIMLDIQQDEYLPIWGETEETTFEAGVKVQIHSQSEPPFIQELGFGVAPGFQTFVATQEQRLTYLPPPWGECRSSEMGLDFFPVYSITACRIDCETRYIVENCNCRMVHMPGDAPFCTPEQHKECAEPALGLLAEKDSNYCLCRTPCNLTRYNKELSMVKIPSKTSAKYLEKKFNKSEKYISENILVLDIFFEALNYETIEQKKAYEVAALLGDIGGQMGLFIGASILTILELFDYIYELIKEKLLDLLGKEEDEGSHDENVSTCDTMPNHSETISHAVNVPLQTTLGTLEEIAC
Test: Two-electrode voltage clamp of Xenopus oocytes expressing BNC1
Format: cell-based
Conditions: BNC1 in Xenopus oocytes; peptide added to bathing solution at 1-30 μM
Experimental: Expression of BNC1 in Xenopus laevis Oocytes--BNC1 was expressed in Xenopus oocytes by nuclear injection of BNC1 cDNA cloned into pMT3 (0.2-0.3 ng). Control oocytes were injected with H2 O. α-, β-, and γhENaC (αβγhENaC) were expressed as described previously. Oocytes were maintained at 18° C. in modified Barth's solution, and current was measured by two-electrode voltage clamp 1 day after injection. During voltage clamp, oocytes were bathed in 116 mM NaCl, 2 mM KCl, 0.4 mM CaCl2, 1 mM Mg Cl2, 5 mM Hepes (pH 7.4 with NaOH). To determine ionic selectivity, NaCl was replaced with LiCl or KCl. Current-voltage relationships were determined by stepping from a holding potential of -60 mV to potentials between -100 and +40 mV for 1 second. Amiloride-sensitive current was obtained by subtracting current during exposure to a maximal concentration of amiloride (100 μM) from current prior to amiloride addition. Phe-Met-Arg-Phe-NH2 (FMRF-am-ide), Phe-Leu-Phe-Gln-Pro-Gln-Arg-Phe-NH2 (F-8-F-amide), and Ala-Gly-Glu-Gly-Leu-Ser-Ser-Pro-Phe-Trp-Ser-Leu-Ala-Ala-Pro-Gln-Arg-Phe-NH2 (A-18-F-amide) were obtained from Sigma and were added to the bathing solution at 1-30 μM.

**Q.** `CSCC[C@H](NC(=O)[C@@H](N)Cc1ccccc1)C(=O)N[C@@H](CCCNC(=N)N)C(=O)N[C@@H](Cc1ccccc1)C(N)=O` [FMRF-amide, Phe-Met-Arg-Phe-NH2] was tested. Which “activation of BNC1 current by agonist peptide” value did it give?
**A.** Its value is “not activated”.
